Source: paper PMC7765948, “Spadin Modulates Astrocytic Passive Conductance via Inhibition of TWIK-1/TREK-1 Heterodimeric Channels” (International Journal of Molecular Sciences, 2020)

Key:
human TREK-1 = system: human TREK-1; parameters: method as in PMID 20405001, PMID 22022421, PMID 32317978; conditions: low concentrations; cited from earlier work
[1] = system: TWIK-1/TREK-1-mediated K^+ currents in cultured astrocytes; assay: Whole-cell patch clamp in cultured astrocytes with CRISPR/Cas9 knockout of TREK-1 or TWIK-1; type: cell-based, mouse (C57BL/6); conditions: 10 µM spadin
Procedure: Primary cortical astrocytes were prepared from one day-old male and female C57BL/6 mouse pups culture astrocytes, P1 C57BL/6 J mouse pups. The cerebral cortex was dissected free of adherent meninges, minced and dissociated into single-cell suspension by trituration through a pipette. All experimental procedures described were performed in accordance with the guidelines of Korea University (Seoul, Korea). Dissociated cells were plated onto either 12 mm glass coverslips or six-well plates coated with 0.1 mg/mL Poly-D-Lysine (PDL). Cells were grown in Dulbecco’s modified Eagle’s medium (DMEM, ThermoFisher, Waltham MA, USA) supplemented with 10% heat-inactivated fetal bovine serum, 10% heat-inactivated horse serum, and penicillin–streptomycin. Cultures were maintained at 37 °C in a humidified 5% CO2 incubator. On the third day of culture, cells were washed by repeated pipetting and the media was replaced to remove debris and other floating cells. On the next day (fourth day of culture), the cells were replaced onto glass coverslips (1 × 104 per coverslip) coated with 0.1 mg/mL PDL. During this procedure, cultured astrocytes were transfected with various shRNAs or gRNAs with an optimized voltage protocol (1100 V, 20 pulse width ms, 2 pulses number) using the Neon Electroporation instrument (ThermoFisher, Waltham, MA, USA).
TREK-1 and TWIK-1 were knocked-out in primary cultured astrocytes using CRISPR/Cas9 technology. TREK-1, TWIK-1, and control CRISPR/Cas9 plasmid were purchased from Santa Cruz Biotechnology (Santa Cruz, Dallas, TX, USA; sc-421244, sc-421243, and sc-418922, respectively). Briefly, all plasmids were transfected by electroporation into primary cultured astrocytes. Transfected astrocytes were plated in 60 mm dishes and cultured for 48 h. When different alleles of mutant clones had to be analyzed, target regions were amplified by PCR using 2× TOPsimpleTM DyeMIX-Forte (Enzynomics, Daejeon, Korea), amplicons were cloned using pTOP Blunt V2 (Enzynomics, Daejeon, Korea), and transformed into TOP10 competent cells. Bacterial colonies containing plasmids with inserts were selected by colony-direct PCR, and PCR products were confirmed by DNA sequencing analysis.
Cultured astrocytes were plated onto coverslips for electrophysiological experiments. The standard solution for the pipette contained (in mM): 150 KCl, 1 CaCl2, 1 MgCl2, 5 EGTA, and 10 HEPES (pH 7.2, adjusted with KOH). Standard bath solution contained (in mM): 150 NaCl, 3 KCl, 2 CaCl2, 1 MgCl2, 10 HEPES, 5.5 D-glucose, and 20 sucrose (pH 7.4, adjusted with NaOH). Patch pipettes were made from borosilicate glass capillaries (Warner Instruments, Washington, DC, USA). The pipette resistance was 5–6 MΩ. Whole-cell currents were recorded using a patch clamp amplifier (Axopatch 700B, Axon Instruments, Union City, CA, USA). Current–voltage relations were measured by applying ramped pulses (from −150 mV to +50 mV over 1000-ms) from a holding potential of −60 mV. A Digidata 1550 A interface (Axon Instruments, Union City, CA, USA) was used to convert digital–analog signals between the amplifier and computer. Data were sampled at 5 kHz and filtered at 1 kHz. Currents were analyzed with Clampfit software (Axon Instruments, Union City, CA, USA). […] Different concentrations of spadin were sequentially bath-applied from low concentration to high concentration by switching solenoid valves using a gravity-fed perfusion system (VC-6M, Harvard Apparatus, Holliston, MA, USA). Whole-cell currents were recorded after 2 min when spadin-contained bath solutions were exchanged. All experiments were conducted at room temperature of 20–22 °C.
All data are presented as means ± standard error of the mean (s.e.m). The significance of data for comparison was assessed by Student’s t-test (paired t-test) or one-way ANOVA followed by Turkey’s post hoc test, and significance levels are given as: n.s: not significant, * p < 0.05, ** p < 0.01, *** p < 0.001, and **** p < 0.0001. […]

CC[C@H](C)[C@H](NC(=O)[C@@H]1CCCN1C(=O)CNC(=O)[C@H](CO)NC(=O)[C@H](Cc1c[nH]c2ccccc12)NC(=O)[C@H](CCCNC(=N)N)NC(=O)[C@@H]1CCCN1C(=O)[C@H](CC(C)C)NC(=O)[C@@H]1CCCN1C(=O)[C@H](C)NC(=O)[C@@H](N)Cc1ccc(O)cc1)C(=O)NCC(=O)N[C@H](C(=O)N[C@@H](CO)C(=O)N[C@@H](Cc1c[nH]c2ccccc12)C(=O)NCC(=O)N[C@@H](CC(C)C)C(=O)N[C@@H](CCCNC(=N)N)C(=O)O)C(C)C [spadin]
inhibition of human TREK-1 (human TREK-1): inhibited by spadin at low concentrations
K^+ conductance with spadin ([1]; TREK-1 KO astrocytes): did not engender further differences in K^+ conductance
spadin-sensitive K^+ conductance ([1]; TREK-1 KO astrocytes): lost almost all spadin-sensitive K^+ conductance
K^+ conductance with spadin ([1]; TWIK-1 KO astrocytes): could not induce any further changes to K^+ conductance
spadin-sensitive currents ([1]; TWIK-1 KO astrocytes): almost disappeared
K^+ conductance with spadin ([1]; control gRNA astrocytes (TREK-1 KO experiment)): huge reduction
K^+ conductance with spadin ([1]; control gRNA astrocytes (TWIK-1 KO experiment)): wide range of decreases in K^+ conductance
